## Antibody variant affinities, Ab-14 heavy chain, assay 1

Antigen: PDVDLGDISGINAS, a 14-residue peptide of the SARS-CoV-2 spike HR2 region.

Parent: Ab-14, a human scFv built as VH, three GGGGS repeats, VL. Only the CDRs of the heavy chain vary.
VH: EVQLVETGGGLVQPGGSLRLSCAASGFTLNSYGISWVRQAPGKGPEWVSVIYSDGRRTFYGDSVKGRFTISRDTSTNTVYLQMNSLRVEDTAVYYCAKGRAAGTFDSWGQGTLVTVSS
VL: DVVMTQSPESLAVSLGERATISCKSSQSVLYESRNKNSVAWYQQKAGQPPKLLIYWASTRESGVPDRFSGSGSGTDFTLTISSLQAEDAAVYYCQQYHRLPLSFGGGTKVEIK

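The parent was found by panning a naive human phage display library on the peptide. The library (AAYL49) carries one to three amino acid substitutions per variant, with no insertions or deletions. AlphaSeq pools MATa yeast showing the antibodies with MATalpha yeast showing the peptide. After mating in shaken culture at 30 °C for 16 h, diploids were selected and their barcode pairs sequenced. Each replicate has its own calibration line, from reference interactions of the BCL2 family. Mating was done three times.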

Each variant is given by its three heavy chain CDRs, as the data file delimits them; those of the parent are GFTLNSYGIS, VIYSDGRRTFYGDSVK, GRAAGTFDS.
The read-out is the apparent dissociation constant on a log10 scale (nM): the lower, the stronger.
The mean shown is taken over the replicates in which the pair was detected.
"not detected" means that the variant was in the library but no mating with the target was seen in any replicate; the authors take this as a sign of poor binding, and no number exists.
In this assay the parent's reference entry averaged 0.65; its copy inside this library read 4.11 (one replicate of three).
As a blank, each scFv also met three strains without target: over library AAYL49, 15% of these pairings were detected, typically at 4.06 and seldom below 2.83. The control count says in how many pairings with the empty strains this scFv gave a signal.

CDR-H1,CDR-H2,CDR-H3,mean log10 Kd (nM),seen in,empty controls
GFTLNSYGIP,VIYSDVRRTFYQDSVK,GRAAGTFDS,3.90,1/3,0/9
GFTLNSYGIS,VIYSDGRRTFYGDSVK,GRANGTFDT,not detected,0/3,0/9
GFTLNSYGIS,VVQSDGRSTFYGDSVK,GRAAGTFDS,3.55,1/3,2/9
GFTLNSYGIS,VIYSDGRRTFWGDSVK,GRIAGTFDS,not detected,0/3,1/9
GFTLNSHGIS,VIYSDGRRTFHGDSVK,RRAAGTFDS,4.65,1/3,3/9
GFTLNCYGIS,VIYYDGRRTFYGDSVK,GPAAGTFDS,3.13,3/3,0/9
GFTLNSYGIS,VIYSDGRRDFYGDSVK,GDAAGTFDV,1.64,3/3,1/9
GFTLNSWGTS,VIYSDGRRTFYGDSVK,GRAAGTFCS,4.49,2/3,3/9
GFYLNSYMIS,VIYHDGRRTFYGDSVK,GRAAGTFDS,3.46,1/3,3/9
GFTFNSYGIL,VIYSDGGRTFYGDSVK,GRAAGTFDS,not detected,0/3,0/9
GFTLNSYGIS,VIYSDGRFTKYEDSVK,GRAAGTFDS,not detected,0/3,0/9
GFTLNSYGIS,VIYSDGRRTDYGDSVK,GLQAGTFDS,2.78,3/3,1/9
GGTLNSYGIS,VIYSDGRRTFYGDSTK,GDAAGTFDS,not detected,0/3,0/9
GFTLNSPGIS,VIYSDGRRTFYGDSVK,RRIAGTFDS,4.68,1/3,0/9
GFTLNSYGIS,VIYSDYRRTRYGDSVK,GSAAGTFDS,5.33,1/3,1/9
GFTLNSYGIS,VIYSMGRRTFYGGSVK,GRAAGSFDS,not detected,0/3,0/9
GFTLNSYGIS,VIYSDGRRTFEGDSVK,YRAAGTFDH,3.34,1/3,1/9
GFTLNSYGIS,VIYSDGRRTFYGDSVK,GRAIITFDS,not detected,0/3,1/9
GFTLNSYGIT,LIYSDIRRTFYGDSVK,GRAAGTFDS,not detected,0/3,0/9
GFTLNSYGIS,SIYSDGRRTNYGDSVK,GRQAGTFDS,3.82,3/3,4/9
GFTLNSYGIS,VIYSDGFRCFTGDSVK,GRAAGTFDS,not detected,0/3,0/9
GFTLNSYGIM,GIYSDGRRTFIGDSVK,GRAAGTFDS,not detected,0/3,0/9
GFTLNSYGSS,VIYSDGRMKFYGDSVK,GRAAGTFDS,not detected,0/3,2/9
GDTLNSYGIS,VIYSDGRRDFYGDSVK,GRAAGNFDS,not detected,0/3,1/9
GFTLWSYGIS,VIYSSGRRTFYGDSVK,GRAAGTFDS,not detected,0/3,0/9
GFDLNSYGIS,VIYSDGRMTFYGDSVK,GRAAGTFDS,4.53,1/3,2/9
GFTLNSMGIR,VIYSDGRRTFYGVSVK,GRAAGTFDS,5.08,2/3,6/9
NFTLNSYGIS,VIYSDGRRTFYGDSVK,GNAAGTFDS,0.80,3/3,1/9
GFELNYYGIS,VIYSDGRRTTYGDSVK,GRAAGTFDS,2.44,3/3,5/9
GFPLNSYGIS,RIYSDGRRTFYGDSVK,GRAAGTFQS,not detected,0/3,0/9
GFTLNSYGIS,VIYSDGVRTFYGDSVK,GRAAGTLDF,1.96,3/3,3/9
GDTLNWYGIS,VIYSDGRRTFYGWSVK,GRAAGTFDS,2.29,1/3,0/9
GFTLNHYGIS,VPYSDGRRTFYGDSVK,GRAAGTFMS,not detected,0/3,0/9
GFFLNSYGIS,VIYSDGRRIFYGDSTK,GRAAGTFDS,4.98,2/3,3/9
GFTLNSYGIS,VIYSDGRRFFYGDSVV,GRAAGTFDS,2.96,3/3,1/9
GFTLNSYGIS,VIYSDGIRTFYGDSVR,GRAASTFDS,4.85,1/3,1/9
GSTLNSYGIS,VIYSDGGRTFYGDSVK,GRAAGTFNS,3.67,2/3,1/9
GFTLNSYGIS,VIYSDGFRTFYGWSVY,GRAAGTFDS,3.74,3/3,1/9
GFTLNCYTIS,VIYSDGRRTFYGDSVK,GRAAGTGDS,3.72,1/3,0/9
GFTLNSYGIS,VIYSDGRRTFYGNSNK,GRAAGTFDL,3.27,3/3,2/9
GFTLNSYGIS,VIYSDGRRTFYGDSGK,GRAGRTFDS,not detected,0/3,0/9
GFTLNSYGIS,VIYSDGRRYFYGDSVK,GRAAGAFDS,not detected,0/3,1/9
GFTLNSYGIS,VIYSDGRRTFYGDSVD,GRAAGTQDT,4.25,1/3,2/9
GFTINSYGIS,VIYSDGRRTFYGDSVE,GRADGTFDS,1.38,3/3,1/9
GFTLHSYGIS,VEYSDGHRTFYGDSVK,GRAAGTFDS,not detected,0/3,2/9
GLTLNSYGIS,VIYSDGRRTFSGDSVK,GRAAGTFDI,5.54,1/3,2/9
GFTLNSYGIS,VIYSDGRRTFYVDSVH,GRAAGTSDS,2.45,3/3,0/9
GFTLNSYGPS,VIYSDGRRTFYGCDVK,GRAAGTFDS,not detected,0/3,0/9
GFTLNSYGIS,VIYSDGRRTFNGDSYK,GRAAGTFDS,not detected,0/3,1/9
GFTLSSYGIS,VIYSGGRRTFYGDSVK,GRANGTFDS,not detected,0/3,0/9
GFTLNSYSIS,VIYSDGRRTFYGDSVK,GCIAGTFDS,not detected,0/3,0/9

Reference: Engelhart et al. 2022, doi:10.1038/s41597-022-01779-4. File: FLAb, binding data.